## Cyclic peptide permeability, from CycPeptMPDB

Data: CycPeptMPDB; original report Kelly et al. 2021, doi:10.1021/jacs.0c06115.

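Conditions beyond the assay type are not listed; see the original paper. The list need not hold all peptides of the study. Peptides that the database sets to -10, its floor, are left out.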

PAMPA is the parallel artificial membrane permeability assay, which has no cells and reads passive diffusion.
Permeability is in 10^-6 cm/s, converted from the database's log10 values; higher is more permeable.

PAMPA (10^-6 cm/s) | SMILES
2.6 | CC(=O)N1CCC[C@@H]1C(=O)N(C)[C@@H](CC(C)C)C(=O)N[C@@H]1C(=O)N[C@H](CC(C)C)C(=O)N(C)[C@@H](CC(C)C)C(=O)N[C@@H](CC(C)C)C(=O)N(C)[C@H](C)C(=O)N[C@H](CC(C)C)C(=O)N2CCC[C@H]2C(=O)O[C@@H]1C
1.8 | CC(=O)N1CCC[C@H]1C(=O)N(C)[C@@H](CC(C)C)C(=O)N[C@@H]1C(=O)N(C)[C@H](CC(C)C)C(=O)N[C@@H](CC(C)C)C(=O)N(C)[C@@H](CC(C)C)C(=O)N(C)[C@H](C)C(=O)N[C@H](CC(C)C)C(=O)N2CCC[C@@H]2C(=O)O[C@@H]1C
0.0079 | CC(=O)N1CCC[C@@H]1C(=O)N(C)[C@H](CC(C)C)C(=O)N[C@@H]1C(=O)N[C@H](CC(C)C)C(=O)N[C@@H](CC(C)C)C(=O)N[C@@H](CC(C)C)C(=O)N[C@@H](C)C(=O)N[C@H](CC(C)C)C(=O)N2CCC[C@@H]2C(=O)O[C@@H]1C
3.2 | CC(=O)N1CCC[C@H]1C(=O)N(C)[C@@H](CC(C)C)C(=O)N[C@@H]1C(=O)N[C@H](CC(C)C)C(=O)N[C@@H](CC(C)C)C(=O)N[C@H](CC(C)C)C(=O)N(C)[C@H](C)C(=O)N[C@@H](CC(C)C)C(=O)N2CCC[C@H]2C(=O)O[C@@H]1C
1.9 | CC(=O)N1CCC[C@H]1C(=O)N(C)[C@H](CC(C)C)C(=O)N[C@@H]1C(=O)N(C)[C@@H](CC(C)C)C(=O)N(C)[C@H](CC(C)C)C(=O)N[C@H](CC(C)C)C(=O)N(C)[C@@H](C)C(=O)N[C@@H](CC(C)C)C(=O)N2CCC[C@H]2C(=O)O[C@@H]1C
0.2 | CC(=O)N1CCC[C@@H]1C(=O)N(C)[C@H](CC(C)C)C(=O)N[C@@H]1C(=O)N(C)[C@@H](CC(C)C)C(=O)N[C@@H](CC(C)C)C(=O)N[C@H](CC(C)C)C(=O)N[C@H](C)C(=O)N[C@H](CC(C)C)C(=O)N2CCC[C@H]2C(=O)O[C@@H]1C
0.31 | CC(=O)N1CCC[C@H]1C(=O)N(C)[C@@H](CC(C)C)C(=O)N[C@@H]1C(=O)N(C)[C@@H](CC(C)C)C(=O)N(C)[C@@H](CC(C)C)C(=O)N[C@H](CC(C)C)C(=O)N[C@H](C)C(=O)N[C@H](CC(C)C)C(=O)N2CCC[C@H]2C(=O)O[C@@H]1C
0.11 | CC(=O)N1CCC[C@@H]1C(=O)N(C)[C@H](CC(C)C)C(=O)N[C@@H]1C(=O)N[C@H](CC(C)C)C(=O)N[C@@H](CC(C)C)C(=O)N[C@H](CC(C)C)C(=O)N[C@H](C)C(=O)N[C@H](CC(C)C)C(=O)N2CCC[C@H]2C(=O)O[C@@H]1C
2.8 | CC(=O)N1CCC[C@@H]1C(=O)N(C)[C@@H](CC(C)C)C(=O)N[C@@H]1C(=O)N(C)[C@@H](CC(C)C)C(=O)N(C)[C@H](CC(C)C)C(=O)N(C)[C@H](CC(C)C)C(=O)N(C)[C@@H](C)C(=O)N[C@@H](CC(C)C)C(=O)N2CCC[C@H]2C(=O)O[C@@H]1C
6.9 | CC(=O)N1CCC[C@@H]1C(=O)N(C)[C@@H](CC(C)C)C(=O)N[C@@H]1C(=O)N[C@@H](CC(C)C)C(=O)N(C)[C@@H](CC(C)C)C(=O)N[C@H](CC(C)C)C(=O)N(C)[C@H](C)C(=O)N[C@@H](CC(C)C)C(=O)N2CCC[C@@H]2C(=O)O[C@@H]1C
2.4 | CC(=O)N1CCC[C@@H]1C(=O)N(C)[C@H](CC(C)C)C(=O)N[C@@H]1C(=O)N[C@H](CC(C)C)C(=O)N(C)[C@H](CC(C)C)C(=O)N(C)[C@H](CC(C)C)C(=O)N(C)[C@@H](C)C(=O)N[C@@H](CC(C)C)C(=O)N2CCC[C@H]2C(=O)O[C@@H]1C
7.9 | CC(=O)N[C@@H]1C(=O)N2CCC[C@H]2C(=O)N(C)[C@H](CC(C)C)C(=O)N(C)[C@@H](CC(C)C)C(=O)N(C)[C@H](CC(C)C)C(=O)N(C)[C@@H](CC(C)C)C(=O)N(C)[C@H](C)C(=O)N[C@@H](CC(C)C)C(=O)N2CCC[C@@H]2C(=O)O[C@@H]1C
1.7 | CC(=O)N1CCC[C@@H]1C(=O)N(C)[C@H](CC(C)C)C(=O)N[C@@H]1C(=O)N[C@@H](CC(C)C)C(=O)N(C)[C@H](CC(C)C)C(=O)N(C)[C@@H](CC(C)C)C(=O)N(C)[C@H](C)C(=O)N[C@@H](CC(C)C)C(=O)N2CCC[C@@H]2C(=O)O[C@@H]1C
0.26 | CC(=O)N1CCC[C@H]1C(=O)N(C)[C@H](CC(C)C)C(=O)N[C@@H]1C(=O)N[C@@H](CC(C)C)C(=O)N[C@@H](CC(C)C)C(=O)N[C@H](CC(C)C)C(=O)N[C@@H](C)C(=O)N[C@H](CC(C)C)C(=O)N2CCC[C@@H]2C(=O)O[C@@H]1C
0.56 | CC(=O)N1CCC[C@@H]1C(=O)N(C)[C@@H](CC(C)C)C(=O)N[C@@H]1C(=O)N(C)[C@H](CC(C)C)C(=O)N[C@@H](CC(C)C)C(=O)N[C@H](CC(C)C)C(=O)N[C@@H](C)C(=O)N[C@@H](CC(C)C)C(=O)N2CCC[C@H]2C(=O)O[C@@H]1C
4.4 | CC(=O)N1CCC[C@@H]1C(=O)N(C)[C@@H](CC(C)C)C(=O)N[C@@H]1C(=O)N(C)[C@H](CC(C)C)C(=O)N(C)[C@@H](CC(C)C)C(=O)N(C)[C@@H](CC(C)C)C(=O)N(C)[C@H](C)C(=O)N[C@H](CC(C)C)C(=O)N2CCC[C@H]2C(=O)O[C@@H]1C

Repeated from above, the 2 entries with the highest PAMPA:

SMILES | PAMPA (10^-6 cm/s)
CC(=O)N[C@@H]1C(=O)N2CCC[C@H]2C(=O)N(C)[C@H](CC(C)C)C(=O)N(C)[C@@H](CC(C)C)C(=O)N(C)[C@H](CC(C)C)C(=O)N(C)[C@@H](CC(C)C)C(=O)N(C)[C@H](C)C(=O)N[C@@H](CC(C)C)C(=O)N2CCC[C@@H]2C(=O)O[C@@H]1C | 7.9
CC(=O)N1CCC[C@@H]1C(=O)N(C)[C@@H](CC(C)C)C(=O)N[C@@H]1C(=O)N[C@@H](CC(C)C)C(=O)N(C)[C@@H](CC(C)C)C(=O)N[C@H](CC(C)C)C(=O)N(C)[C@H](C)C(=O)N[C@@H](CC(C)C)C(=O)N2CCC[C@@H]2C(=O)O[C@@H]1C | 6.9